Experimental data as given in patent US9902734B2, “Nicotinic acetylcholine receptor agonists” (priority 2010, dated 2018).

By UniProt entry, the sequences of proteins in these tests, tags left out. Residues count along the entry.
UniProt P04757, 26-499: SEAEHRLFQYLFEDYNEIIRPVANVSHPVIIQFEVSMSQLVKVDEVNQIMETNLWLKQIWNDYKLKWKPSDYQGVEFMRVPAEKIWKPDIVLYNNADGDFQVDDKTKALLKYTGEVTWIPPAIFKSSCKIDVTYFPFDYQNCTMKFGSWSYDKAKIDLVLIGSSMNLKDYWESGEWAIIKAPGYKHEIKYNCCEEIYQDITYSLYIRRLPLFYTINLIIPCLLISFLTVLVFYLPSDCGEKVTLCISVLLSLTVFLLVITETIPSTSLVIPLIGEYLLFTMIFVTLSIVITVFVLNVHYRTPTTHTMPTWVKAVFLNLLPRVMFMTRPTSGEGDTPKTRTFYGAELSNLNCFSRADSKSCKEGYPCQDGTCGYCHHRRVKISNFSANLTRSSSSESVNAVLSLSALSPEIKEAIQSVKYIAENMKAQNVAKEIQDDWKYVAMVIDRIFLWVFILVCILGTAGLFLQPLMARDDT
UniProt P12392, 21-495: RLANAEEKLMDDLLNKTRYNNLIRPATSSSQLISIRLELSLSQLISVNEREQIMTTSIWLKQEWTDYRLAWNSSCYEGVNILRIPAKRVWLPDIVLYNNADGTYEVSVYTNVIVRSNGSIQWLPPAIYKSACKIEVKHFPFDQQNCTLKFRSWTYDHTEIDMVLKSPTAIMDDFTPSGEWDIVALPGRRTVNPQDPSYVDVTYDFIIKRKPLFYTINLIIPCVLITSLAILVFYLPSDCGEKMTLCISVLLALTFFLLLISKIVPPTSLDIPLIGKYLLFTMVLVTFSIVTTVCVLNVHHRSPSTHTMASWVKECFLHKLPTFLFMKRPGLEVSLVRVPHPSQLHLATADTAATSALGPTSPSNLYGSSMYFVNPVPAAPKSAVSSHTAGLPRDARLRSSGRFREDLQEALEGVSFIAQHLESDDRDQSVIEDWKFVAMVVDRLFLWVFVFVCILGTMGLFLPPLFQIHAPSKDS

Biological target: T1, KXα3β4R2 cells (HEK cells expressing rat α3 and β4 nicotinic receptor subunits) (Rattus norvegicus, UniProt P04757+P12392)
T1 construct: expressed in transfected cells; host or cells: HEK cells (KXα3β4R2)
Assay type: cell-based
Settings: fractions of E. anthonyi alkaloid extract

## Clc1ccc(C2CC3CCC2N3)cn1 (stereo not shown) [Compound 1, epibatidine]
  nicotinic-agonist activity of isolated fraction: greatest activity; also recorded: major activity of the three

“Also recorded” adds a separate entry of the source.
